In patent US11707447B1:

Assay: Mouse pharmacokinetic (PK) evaluation of drug metabolism to psilocin

Compound: CN(C)CCc1c[nH]c2cccc(OC(=O)OCc3ccccc3)c12 [B(II), reference compound]
- detection of administered compound in plasma (in words) (1 mg/kg oral): neither B(II) nor E(VI) were detected in plasma
- psilocin levels / exposure, B(II) vs E(VI) (in words) (oral dosing, sampling period 0.25-24 h): higher psilocin levels in B(II)-treated mice
